Laboratory results: patent publication US20220265700A1, “METHODS TO PREVENT, INHIBIT OR TREAT INTERVERTEBRAL DISC DEGENERATION” (University of Iowa Research Foundation, priority 2021, published 2022)

Tests used:
nucleus pulposus cells [1] = assay: Mitochondrial ROS production, MitoSOX Red; assay type: cell-based, rabbit
nucleus pulposus cells [2] = assay: Mitochondrial membrane potential, JC-1 assay; assay type: cell-based, rabbit
nucleus pulposus cells [3] = details: pre-treated with […] Amo (and 10 mM NAC for the mixture) prior to 50 μM tBHP 1 h

CCC1(CCC(C)C)C(=O)NC(=O)NC1=O [amobarbital]
decrease of MitoSOX oxidation compared with tBHP (nucleus pulposus cells [1]): approximately 50% | mitochondrial membrane potential (ratio J-aggregate/monomeric form) vs. tBHP (nucleus pulposus cells [2]): enhanced the membrane potential | apoptotic and necrotic cells (nucleus pulposus cells [3]): approximately 8% | live cells (nucleus pulposus cells [3]): 92.2%
